## Yeast mating assay B: variants of the scFv Ab-14

The target is the same throughout: PDVDLGDISGINAS, from the HR2 region of SARS-CoV-2 spike.

Ab-14 is the parent antibody, in scFv form: VH, then a (GGGGS)3 linker, then VL. The light chain is unchanged in all variants.
VH: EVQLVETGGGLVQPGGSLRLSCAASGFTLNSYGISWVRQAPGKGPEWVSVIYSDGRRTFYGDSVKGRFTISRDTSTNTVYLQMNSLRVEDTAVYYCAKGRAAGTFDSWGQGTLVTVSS
VL: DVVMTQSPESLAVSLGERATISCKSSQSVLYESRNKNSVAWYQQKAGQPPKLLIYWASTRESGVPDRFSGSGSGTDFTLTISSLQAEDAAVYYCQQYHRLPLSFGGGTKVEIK

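The parent was found by panning a naive human phage display library on the peptide. The variants were designed computationally from a first round of random CDR variants and then made and measured. Group labels follow the data file (Ctrl: baseline library sampled from a position-specific scoring matrix, with some repeated check sequences; Rand: our label for a block that the file lists under HC and that is probably the random mutants of the ten best first-round binders; GP: Gaussian process model; GPLM: also part of the Gaussian process libraries; HC: hill climbing; Gen: genetic algorithm; Gibbs: Gibbs sampling; a sequence that several methods proposed may carry one label only). Affinity was read by AlphaSeq, a pooled yeast mating assay with surface-displayed partners. After mating in shaken culture at 30 °C for 16 h, diploids were selected and their barcode pairs sequenced. A regression on co-assayed BCL2-family reference pairs converts the normalised counts of each replicate to an apparent Kd. Mating was done six times.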

Each variant's VH is given in full.
Variants here have at most six changes.
Each Kd is an estimate from the mating assay, the geometric mean of the replicates in which the pair was seen; lower is stronger.
"nd" means that the variant was in the library but no mating with the target was seen in any replicate; the authors take this as a sign of poor binding, and no number exists.
Values of this round are not directly comparable with the first-round values of the same sequences.

Variant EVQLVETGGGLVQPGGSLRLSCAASGFSLNEYGISWVRQAPGKGPEWVSVIYSDGRRTFYCDSVKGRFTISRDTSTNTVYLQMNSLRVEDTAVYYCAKGQAAGTFDSWGQGTLVTVSS [GP_Gibbs] gave 3.4 nM (6 of 6 replicates). Variant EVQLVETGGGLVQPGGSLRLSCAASGFSLNSYGISWVRQAPGKGPEWVSVIYSDGHRTFYGDSVKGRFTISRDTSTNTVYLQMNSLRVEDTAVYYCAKGRVAGTFDSWGQGTLVTVSS [GPLM_Gen] gave 4.4 nM (6 of 6 replicates). Variant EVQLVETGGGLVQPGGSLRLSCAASGFTLGSYGISWVRQAPGKGPEWVSVIYSDGRRTFYKDSVRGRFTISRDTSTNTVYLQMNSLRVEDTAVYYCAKGRAAGTFDSWGQGTLVTVSS [Ctrl] showed 67 nM (2 of 6 replicates). For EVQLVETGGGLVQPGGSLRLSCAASGFELNSYGISWVRQAPGKGPEWVSVIYSDGRRTAYGDSVKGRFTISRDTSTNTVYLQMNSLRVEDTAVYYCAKGREAGTFDSWGQGTLVTVSS [GP_Gen], the assay gave 4.8 nM (6 of 6 replicates). Variant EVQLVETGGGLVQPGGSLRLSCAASGFTLNSYGIHWVRQAPGKGPEWVSVIYSDGRRTFYIDSVKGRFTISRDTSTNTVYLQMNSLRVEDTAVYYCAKVRTAGTFDSWGQGTLVTVSS [Ctrl] gave nd (0 of 6 replicates).

Variant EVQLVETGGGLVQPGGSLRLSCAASGFTLNKYGISWVRQAPGKGPEWVSVIYSDGRRTFYGDSVKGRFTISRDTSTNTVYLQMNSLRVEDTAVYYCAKIDAAGTFESWGQGTLVTVSS [Ctrl] showed nd (0 of 6 replicates). Variant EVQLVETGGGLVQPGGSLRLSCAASGFTSNSYGISWVRQAPGKGPEWVSVIYSDGRRCSYGDSVKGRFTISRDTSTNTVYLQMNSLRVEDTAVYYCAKGRAAGTFDSWGQGTLVTVSS [Ctrl] gave 79 nM (1 of 6 replicates). Variant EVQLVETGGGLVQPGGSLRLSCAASGFELNSYGISWVRQAPGKGPEWVSVIYSDGRRTFYSDSVKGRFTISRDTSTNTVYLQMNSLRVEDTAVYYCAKGRAAVTFDSWGQGTLVTVSS [GP_HC] showed 95 nM (5 of 6 replicates). With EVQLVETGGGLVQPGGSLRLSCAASGFHLNSYGISWVRQAPGKGPEWVSVIYSDGRRTFYHDSVKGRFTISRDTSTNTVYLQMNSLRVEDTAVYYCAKGEAAGTFDSWGQGTLVTVSS [GPLM_Gibbs] the result was 10 nM (6 of 6 replicates). Variant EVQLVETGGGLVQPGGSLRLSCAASGFSLNSYGISWVRQAPGKGPEWVSVIYADGRRTFYGDSVKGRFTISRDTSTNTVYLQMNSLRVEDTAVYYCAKGQAAGTFDKWGQGTLVTVSS [GPLM_Gibbs] showed 1.1 nM (6 of 6 replicates).

Variant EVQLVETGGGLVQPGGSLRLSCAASGFDLNSYGISWVRQAPGKGPEWVSVIYSDGRRTFYGDSVKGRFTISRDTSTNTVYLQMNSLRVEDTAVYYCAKGRAAGAFQSWGQGTLVTVSS [GP_HC] showed nd (0 of 6 replicates). Variant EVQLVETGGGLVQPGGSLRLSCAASGFTLNSYGISWVRQAPGKGPEWVSVIYSDGRRTFYGDEVKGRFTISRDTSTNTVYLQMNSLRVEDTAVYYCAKGRNAGTFDSWGQGTLVTVSS [Ctrl] showed 520 nM (3 of 6 replicates). With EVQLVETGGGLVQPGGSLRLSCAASGFSLNSYGISWVRQAPGKGPEWVSVIYADGRRTFYGDSVKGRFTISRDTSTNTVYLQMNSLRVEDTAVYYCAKGDAAGTFDSWGQGTLVTVSS [GPLM_Gen] the result was 380 pM (6 of 6 replicates). Variant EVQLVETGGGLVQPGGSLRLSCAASGFTLNDYGISWVRQAPGKGPEWVSVIYSDGRRTMYTDSVKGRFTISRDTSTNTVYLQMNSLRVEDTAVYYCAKGRAAGTFDSWGQGTLVTVSS [GP_HC] gave 12 nM (6 of 6 replicates). Variant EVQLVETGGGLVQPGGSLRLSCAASGFTLNSYGISWVRQAPGKGPEWVSVIYSDGRRTFYADSVKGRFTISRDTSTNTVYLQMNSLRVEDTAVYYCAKGQAVGTFDSWGQGTLVTVSS [GP_HC] gave nd (0 of 6 replicates).

For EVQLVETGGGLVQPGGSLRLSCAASGFTLNSQGISWVRQAPGKGPEWVSVIYSDGRRTFYADSVKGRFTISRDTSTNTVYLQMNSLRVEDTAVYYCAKGQAAGAFDSWGQGTLVTVSS [Ctrl], the assay gave 670 nM (1 of 6 replicates). With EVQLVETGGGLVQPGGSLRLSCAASGFTLYEYGISWVRQAPGKGPEWVSVIYSDGRRTFYGDSVKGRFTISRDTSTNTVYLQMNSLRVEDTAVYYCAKGRAAVTFCQWGQGTLVTVSS [Rand] the result was nd (0 of 6 replicates). For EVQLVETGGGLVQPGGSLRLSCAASGFTLNSYGISWVRQAPGKGPEWVSVIYSNGRRTFYSDSVKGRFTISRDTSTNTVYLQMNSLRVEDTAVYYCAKGRAGGTFDIWGQGTLVTVSS [Rand], the assay gave nd (0 of 6 replicates). For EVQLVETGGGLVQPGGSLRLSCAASGFTLNEYGISWVRQAPGKGPEWVSVIYSDGWRTFYGDSVKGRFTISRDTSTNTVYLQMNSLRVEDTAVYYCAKGRTAGTFDTWGQGTLVTVSS [GP_Gibbs], the assay gave 22 nM (6 of 6 replicates). Variant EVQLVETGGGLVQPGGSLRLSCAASGFSLNEYGISWVRQAPGKGPEWVSVIYSDGRRTFYKDSVKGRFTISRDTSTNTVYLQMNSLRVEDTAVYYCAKGRTAGTFDSWGQGTLVTVSS [GPLM_Gen] gave 600 pM (6 of 6 replicates).

With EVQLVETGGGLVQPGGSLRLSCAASGFTLNEYGISWVRQAPGKGPEWVSVIYSDGRRTFYTDSVKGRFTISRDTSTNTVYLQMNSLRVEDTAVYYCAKGEAAGTFDSWGQGTLVTVSS [GPLM_HC] the result was 2.1 nM (6 of 6 replicates).

Again, the first 3 entries without any signal:

For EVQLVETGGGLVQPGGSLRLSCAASGFTLNSYGIHWVRQAPGKGPEWVSVIYSDGRRTFYIDSVKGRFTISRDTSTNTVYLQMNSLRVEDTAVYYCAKVRTAGTFDSWGQGTLVTVSS [Ctrl], the assay gave nd (0 of 6 replicates).
For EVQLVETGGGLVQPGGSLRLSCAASGFTLNKYGISWVRQAPGKGPEWVSVIYSDGRRTFYGDSVKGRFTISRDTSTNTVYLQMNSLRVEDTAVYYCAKIDAAGTFESWGQGTLVTVSS [Ctrl], the assay gave nd (0 of 6 replicates).
For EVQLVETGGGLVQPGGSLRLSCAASGFDLNSYGISWVRQAPGKGPEWVSVIYSDGRRTFYGDSVKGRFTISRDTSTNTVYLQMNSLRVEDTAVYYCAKGRAAGAFQSWGQGTLVTVSS [GP_HC], the assay gave nd (0 of 6 replicates).

The authors' rule: three or more of the six replicates give a measured affinity, fewer mean a poor binder.
As a blank, each scFv also met three strains without target: over all heavy chain designs, 1% of these pairings were detected, typically at 120 nM and seldom below 7.0 nM.
Of ten entries with the parent sequence, four were seen in most replicates (averages 2.2 nM to 240 nM), three in one and three in none, so single entries are noisy.

Source: Li et al. 2023 (doi:10.1038/s41467-023-39022-2), MIT Lincoln Laboratory and A-Alpha Bio; data file from the FLAb repository.